Measurements as given in patent publication US9540385B2, “Pyrrolopyrimidine compounds as kinase inhibitors” (Pharmacyclics LLC, priority 2012, dated 2017).

The chains behind the UniProt entries cited, without tags or fusion partners.
UniProt Q06187, whole entry: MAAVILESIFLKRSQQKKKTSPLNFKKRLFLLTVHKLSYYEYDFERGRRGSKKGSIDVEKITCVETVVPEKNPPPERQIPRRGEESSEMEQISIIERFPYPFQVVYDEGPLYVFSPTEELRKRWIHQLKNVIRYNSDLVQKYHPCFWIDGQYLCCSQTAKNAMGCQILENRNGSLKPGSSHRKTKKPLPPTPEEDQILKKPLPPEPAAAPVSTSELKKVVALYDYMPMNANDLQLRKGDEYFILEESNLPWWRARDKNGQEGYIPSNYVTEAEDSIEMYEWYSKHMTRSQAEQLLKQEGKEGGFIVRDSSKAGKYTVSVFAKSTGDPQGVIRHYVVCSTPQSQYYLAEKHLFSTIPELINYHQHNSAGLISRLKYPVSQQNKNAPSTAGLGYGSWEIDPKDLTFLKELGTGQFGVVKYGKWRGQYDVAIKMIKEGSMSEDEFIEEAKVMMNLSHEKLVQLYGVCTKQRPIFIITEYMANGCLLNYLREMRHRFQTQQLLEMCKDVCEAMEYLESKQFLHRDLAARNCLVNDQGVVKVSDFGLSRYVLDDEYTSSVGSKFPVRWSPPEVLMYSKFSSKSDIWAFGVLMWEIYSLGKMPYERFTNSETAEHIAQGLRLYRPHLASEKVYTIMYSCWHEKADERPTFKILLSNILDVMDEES

target: BTK (Homo sapiens, UniProt Q06187); experiment: Btk in vitro inhibitory activity / inhibition of a panel of kinases (TR-FRET, mobility shift or radiometric filter binding); format: biochemical; conditions: read-out: BTK IC50; kinase assay by one of methods A, B or C
Protocol: Btk kinase activity is determined using a time-resolved fluorescence resonance energy transfer (TR-FRET) methodology. Measurements are performed in a reaction volume of 50 μL using 96-well assay plates. Kinase enzyme, inhibitor, ATP (at the Km for the kinase), and 1 μM peptide substrate (Biotin-AVLESEEELYSSARQ-NH2) are incubated in a reaction buffer composed of 20 mM Tris, 50 mM NaCl, MgCl2 (5-25 mM depending on the kinase), MnCl2 (0-10 mM), 1 mM DTT, 0.1 mM EDTA, 0.01% bovine serum albumin, 0.005% Tween-20, and 10% DMSO at pH 7.4 for one hour. The reaction is quenched by the addition of 1.2 equivalents of EDTA (relative to divalent cation) in 25 μL of 1× Lance buffer (Perkin-Elmer). Streptavidin-APC (Perkin-Elmer) and Eu-labeled p-Tyr100 antibody (Perkin-Elmer) in 1× Lance buffer are added in a 25 μL volume to give final concentrations of 100 nM and 2.5 nM, respectively, and the mixture is allowed to incubate for one hour. The TR-FRET signal is measured on a multimode plate reader with an excitation wavelength (λEx) of 330 nm and detection wavelengths (λEm) of 615 and 665 nm. Activity is determined by the ratio of the fluorescence at 665 nm to that at 615 nm. For each compound, enzyme activity is measured at various concentrations of compound. Negative control reactions are performed in the absence of inhibitor in replicates of six, and two no-enzyme controls are used to determine baseline fluorescence levels. Inhibition constants, Ki(app), ware obtained using the program BatchKi (Kuzmic et al. (2000), Anal. Biochem. 286:45-50). IC50s are obtained according to the equation: IC50={Ki(app)/(1+[ATP]/Km^ATP)}+[E]total/2;
For all kinases, [ATP]=Km^ATP, [Btk]total=0.5 nM and [Lck]total=6 nM.
Kinase activity is measured in vitro using electrophoretic mobility shift assay. The kinase reactions are assembled in a total volume of 25 μL in 384 well plates. The reactions comprise: BTK enzyme (1 nM, N-terminal His6-tagged, recombinant, full-length, human BTK purified from baculovirus Sf21 insect cell system), inhibitor, ATP ([…] the apparent Km for the kinase), fluorescently labeled peptide substrate (1 μM, FAM-GEEPLYWSFPAKKK-NH2) in a reaction buffer composed of 100 mM HEPES, pH7.5, 5 mM MgCl2 1 mM DTT, 0.1% bovine serum albumin, 0.01% Triton X-100, and 1% DMSO. The reaction is incubated for one hour and is quenched by the addition of 45 μL of termination buffer (100 mM HEPES, pH7.5, 0.01% Triton X-100, 30 mM EDTA). The terminated reactions are analyzed using 12 channel LabChip® 3000 microfluidic detection instrument (Caliper Life Sciences). The enzymatic phosphorylation of the peptide results in a change in net charge, enabling electrophoretic separation of product from substrate peptide. As substrate and product peptides are separated, two peaks of fluorescence are observed. Change in the relative fluorescence intensity of the substrate and product peaks is the parameter measured, reflecting enzyme activity. In the presence of an inhibitor, the ratio between product and substrate is altered: the signal of the product decreases, while the signal of the substrate increases.
Activity in each sample is determined as the product to sum ratio (PSR):P/(S+P), where P is the peak height of the product peptide and S is the peak height of the substrate peptide. For each compound, enzyme activity is measured at various concentrations (12 concentrations of compound spaced by 3× dilution intervals). […] Percent inhibition (Pinh) is determined using following equation: […]

IC50, < 100 nM:
Cc1c(-c2ccc(C(=O)Nc3cc(C#N)ccn3)cc2)c2c(N)ncnc2n1[C@@H]1CCN(C(=O)/C=C/CN(C)C2CC2)C1, CN(C/C=C/C(=O)N1CC[C@@H](n2cc(-c3ccc(C(=O)Nc4cc(C(F)(F)F)ccn4)cc3)c3c(N)ncnc32)C1)C1CC1, Cc1ccnc(NC(=O)c2ccc(-c3c(C)n([C@@H]4CCN(C(=O)/C=C/CN(C)C5CC5)C4)c4ncnc(N)c34)cc2)c1, CCCc1ccnc(NC(=O)c2ccc(-c3c(C)n([C@@H]4CCN(C(=O)/C=C/CN(C)C5CC5)C4)c4ncnc(N)c34)cc2)c1, Cc1c(-c2ccc(C(=O)Nc3cc(C(F)(F)F)ccn3)cc2)c2c(N)ncnc2n1[C@@H]1CCN(C(=O)/C=C/CN(C)C2CC2)C1
